# Yeast mating assay 1: variants of the scFv Ab-14

Reference: Engelhart et al. 2022, doi:10.1038/s41597-022-01779-4. File: FLAb, binding data.

Target: peptide PDVDLGDISGINAS, taken from heptad repeat 2 (HR2) of SARS-CoV-2 spike.

Parent scFv Ab-14: VH joined to VL by three GGGGS repeats. Changes lie in the heavy chain CDRs alone.
VH: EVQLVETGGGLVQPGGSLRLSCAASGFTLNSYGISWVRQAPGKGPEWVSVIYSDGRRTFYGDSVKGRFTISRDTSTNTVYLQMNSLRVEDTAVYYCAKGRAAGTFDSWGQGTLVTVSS
VL: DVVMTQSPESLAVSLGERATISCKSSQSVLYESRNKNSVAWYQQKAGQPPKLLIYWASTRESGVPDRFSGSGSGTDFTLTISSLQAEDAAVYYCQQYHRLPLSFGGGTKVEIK

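The library (AAYL49) carries one to three amino acid substitutions per variant, with no insertions or deletions. AlphaSeq pools MATa yeast showing the antibodies with MATalpha yeast showing the peptide. Mating (16 h, 30 °C) was followed by selection of diploids and sequencing of their barcodes. A regression on co-assayed BCL2-family reference pairs converts the normalised counts of each replicate to an apparent Kd. Each pool was mated in three replicate cultures.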

The parent's heavy chain CDRs are GFTLNSYGIS, VIYSDGRRTFYGDSVK, GRAAGTFDS; each variant's own CDRs replace them letter for letter.
Values are log10 of the apparent Kd in nM; lower means stronger binding.
The mean shown is taken over the replicates in which the pair was detected.
Where no diploid with the target was found in that replicate, the entry reads "ND": below detection, most likely a poor binder, though not proof of it.
As a blank, each scFv also met three strains without target: over library AAYL49, 15% of these pairings were detected, typically at 4.06 and seldom below 2.83. For each scFv, signals with the empty controls are counted beside the result, with their mean in brackets.
In this assay the parent's reference entry averaged 0.65; its copy inside this library read 4.11 (one replicate of three).

CDR-H1,CDR-H2,CDR-H3,log10 Kd (nM) by replicate,"mean, log10 nM",empty controls
GFTLNSYGIS,VIYSDGRRTFYGTMVK,GIAAGTFDS,ND / ND / ND,ND,2/9 (4.12)
GFTLNSYHIS,VIYSEGRRTFEGDSVK,GRAAGTFDS,ND / ND / ND,ND,0/9
GHTLNSYGIS,VILSDGRRTFYGDSVK,GRAQGTFDS,3.54 / 5.23 / 6.39,5.05,4/9 (4.93)
GFCLNSYGNS,VIYSDGRRTFYGDSVK,GHAAGTFDS,ND / ND / ND,ND,2/9 (3.27)
GFTLNSYGIM,VIYSDGRRTFYGDSVK,GRFAGTFDQ,ND / ND / ND,ND,0/9
GFSPNSYGIS,VIYSDGRRDFYGDSVK,GRAAGTFDS,ND / ND / ND,ND,1/9 (3.15)
GFTLNSYGIS,VIYSDGRREFYGDSVK,GRAAGTFDS,2.77 / 3.04 / 3.40,3.07,2/9 (4.13)
GFTLNSYRIS,VIQSTGRRTFYGDSVK,GRAAGTFDS,ND / ND / ND,ND,0/9
GFTLNIYGIS,VIYSDGRRTFYGDSVK,GRAAGRFFS,ND / 3.55 / 1.84,2.69,0/9
GFTLNSYGSS,VIYSDGRRWFYGDQVK,GRAAGTFDS,5.90 / 4.10 / ND,5.00,2/9 (4.00)
GFTRNSYGIS,VIYSDGRREFYDDSVK,GRAAGTFDS,ND / ND / ND,ND,1/9 (3.15)
GFTLNSYGIS,VIYSDGRRTFYGDSVK,GCKAGTFDS,1.58 / 1.62 / 1.68,1.63,1/9 (5.26)
GFDLNSYGIS,YIYSDGRRTFYGDSVK,GRAAGTDDS,ND / 5.67 / 4.44,5.05,4/9 (4.94)
GFTLNSYGIS,VIYSDGRRTFYGDSVK,GRAAGTFSS,1.76 / 1.71 / 2.19,1.89,5/9 (4.64)
GFTLNSYGIS,VKYSDGERTFYGDSVK,GRAAGTFDS,ND / ND / ND,ND,1/9 (2.83)
GFTLNSYGNS,VIYYDGRRTFYGDSVK,IRAAGTFDS,ND / ND / ND,ND,0/9
GFWLNSYGIS,VIYSDGRRTGYGDSVK,GRAAGTFDD,2.00 / 1.75 / 1.86,1.87,1/9 (4.62)
GFTLNSKRIS,VIYSDGRRTFYGDSVK,GRAAGTFAS,ND / ND / ND,ND,0/9
MFTLNSYGIS,VIYSDGRGTFYGDSHK,GRAAGTFDS,ND / ND / ND,ND,1/9 (3.03)
GFDLNSYGIS,CIYSDGRRTFYGDSVK,GRAAGTSDS,ND / 5.08 / 5.74,5.41,1/9 (5.01)
GFTLNSYGIS,VIYSDGRRTSYGDSVK,KRYAGTFDS,ND / ND / ND,ND,0/9
GFTLNSYGIS,VIYSDGRRTFYGDSVK,GNAPGYFDS,ND / ND / ND,ND,0/9
GFTSNSKGIS,VIYSDGRRTFYGDSVK,GRAAGTFDV,4.82 / ND / ND,4.82,1/9 (4.03)
YFTLNSYGIS,VIYSDTRRTFYGDSVK,GRAAGTDDS,ND / 4.98 / ND,4.98,0/9
GFTLNSYGIS,VIYSDGRRTFYHDSVK,GRAVGTFDS,ND / ND / ND,ND,0/9
GFTLNSYGIS,VIYSDGRRTFYGQSVL,GRAAGTFDS,1.86 / 1.84 / 3.24,2.31,0/9
GFTLNSYGIS,VIYSDGRRTFYGDSKV,GRAAFTFDS,ND / ND / ND,ND,1/9 (3.14)
GFTLNSYGIS,VIYSDGRRTFYGDSVK,DRSAGTFDS,1.26 / 1.35 / 1.45,1.35,5/9 (4.45)
GFTLNSYGNS,VIYSDGRRTFTGDSVK,GRAAGTHDS,ND / ND / ND,ND,1/9 (3.93)
GFTLNSYGIS,VIYSGGRRVFYGDSVK,GRAAGTFGS,ND / ND / ND,ND,0/9
GFTLNTYGIS,EDYSDGRRTFYGDSVK,GRAAGTFDS,ND / ND / ND,ND,1/9 (5.60)
GFTCNSYGIS,VIHSDGRYTFYGDSVK,GRAAGTFDS,ND / ND / 5.00,5.00,0/9
GFTLNSYGIH,VIYTDGRRTFYGDSVK,GRANGTFDS,ND / 3.84 / 3.47,3.66,4/9 (3.76)
GFILNSYGIS,VIYSDGRRTFYGFSVK,GRAAGMFDS,ND / ND / ND,ND,0/9

Extract of 6 entries:

CDR-H1	CDR-H2	CDR-H3	log10 Kd (nM) by replicate	mean, log10 nM	empty controls
GHTLNSYGIS	VILSDGRRTFYGDSVK	GRAQGTFDS	3.54 / 5.23 / 6.39	5.05	4/9 (4.93)
GFTLNIYGIS	VIYSDGRRTFYGDSVK	GRAAGRFFS	ND / 3.55 / 1.84	2.69	0/9
GFTLNSYGIS	VIYSDGRRTFYGTMVK	GIAAGTFDS	ND / ND / ND	ND	2/9 (4.12)
GFTLNSYGIS	VKYSDGERTFYGDSVK	GRAAGTFDS	ND / ND / ND	ND	1/9 (2.83)
GFTLNSYGIS	VIYSDGRRTFYGQSVL	GRAAGTFDS	1.86 / 1.84 / 3.24	2.31	0/9
GFTLNSYGIM	VIYSDGRRTFYGDSVK	GRFAGTFDQ	ND / ND / ND	ND	0/9